Values quoted from earlier work, collected in patent publication EP4115885A1 (Charité - Universitätsmedizin Berlin, priority 2021, dated 2023).

Amino acid sequences for entries named in this document (tags omitted). A change or cut given only in a name is not applied to a line headed by its entry.
UniProt P32246: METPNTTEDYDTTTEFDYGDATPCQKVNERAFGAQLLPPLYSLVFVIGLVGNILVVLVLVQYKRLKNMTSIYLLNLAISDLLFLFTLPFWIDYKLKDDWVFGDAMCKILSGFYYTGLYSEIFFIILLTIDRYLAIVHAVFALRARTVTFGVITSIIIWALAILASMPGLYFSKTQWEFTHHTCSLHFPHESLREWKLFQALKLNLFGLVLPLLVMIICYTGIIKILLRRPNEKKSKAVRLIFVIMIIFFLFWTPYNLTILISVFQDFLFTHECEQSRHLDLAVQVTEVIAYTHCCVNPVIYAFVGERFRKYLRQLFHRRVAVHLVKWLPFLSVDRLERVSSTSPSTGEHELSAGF

Experiments:
[1] = test system: CCR5, CCR2, CXCR1, CXCR2, or CXCR4; details: cited from earlier work
[2] = test system: rabbit renal transplant rejection model; details: in vivo; cited from earlier work
[3] = vital organ systems including pulmonary function; cited from earlier work
[4] = human, in vivo, cited from earlier work
[5] = test system: MIP1-α-induced CD11b expression in peripheral blood monocytes; details: healthy subjects, single doses; returned to baseline after discontinuation; cited from earlier work
CCR1 = CCR1 (Homo sapiens, UniProt P32246); details: cited from earlier work
[6] = test system: murine models of lung injury; details: mouse, in vivo; cited from earlier work
[7] = test system: mouse renal fibrosis model; details: in vivo; cited from earlier work
human or animal CCR1 = details: cited from earlier work
[8] = test system: rat experimental model of autoimmune encephalitis (EAE); details: in vivo; cited from earlier work

## C[C@@H]1CN(Cc2ccc(F)cc2)CCN1C(=O)COc1ccc(Cl)cc1NC(N)=O [BAY 86-5277, N-[5-chloro-2-[2-[(2R)-4-[(4-fluorophenyl)methyl]-2-methyl-1-piperazinyl]-2-oxoethoxy]phenyl]-urea]
[1]
  directed migration of cells in response to the ligands of CCR5, CCR2, CXCR1, CXCR2, or CXCR4: did not affect
[2]
  activity in efficacy model: demonstrated activity
[3]
  overall results of safety pharmacology studies: did not reveal effects that are expected to have an impact to the health of humans
[4]; po
  proof-of-concept or evidence for clinical efficacy: could not demonstrate proof-of-concept or evidence for clinical efficacy
[4]
  gastrointestinal disorders such as nausea, vomiting and diarrhoea (most common adverse events): 5-20 % of patients
[5]
  blockade of ex vivo MIP1-α-induced CD11b expression: dose dependent blockade
CCR1
  leukocyte migration specifically related to the CCR1 receptor: inhibiting leukocyte migration
[6]
  effect of blockade of CCR1: beneficial
[7]
  activity in efficacy model: demonstrated activity
Human or animal CCR1
  binding affinity: high affinity
  competition with 125l-labelled MIP-1α and RANTES: effectively compete
[8]
  activity in efficacy model: demonstrated activity
